Laboratory results from the Kinase Knowledgebase extract (Sharma et al. 2016).

Protein sequences, listed by entry. Tags and fused reporters are not part of them.
UniProt P42336, whole entry, looked up: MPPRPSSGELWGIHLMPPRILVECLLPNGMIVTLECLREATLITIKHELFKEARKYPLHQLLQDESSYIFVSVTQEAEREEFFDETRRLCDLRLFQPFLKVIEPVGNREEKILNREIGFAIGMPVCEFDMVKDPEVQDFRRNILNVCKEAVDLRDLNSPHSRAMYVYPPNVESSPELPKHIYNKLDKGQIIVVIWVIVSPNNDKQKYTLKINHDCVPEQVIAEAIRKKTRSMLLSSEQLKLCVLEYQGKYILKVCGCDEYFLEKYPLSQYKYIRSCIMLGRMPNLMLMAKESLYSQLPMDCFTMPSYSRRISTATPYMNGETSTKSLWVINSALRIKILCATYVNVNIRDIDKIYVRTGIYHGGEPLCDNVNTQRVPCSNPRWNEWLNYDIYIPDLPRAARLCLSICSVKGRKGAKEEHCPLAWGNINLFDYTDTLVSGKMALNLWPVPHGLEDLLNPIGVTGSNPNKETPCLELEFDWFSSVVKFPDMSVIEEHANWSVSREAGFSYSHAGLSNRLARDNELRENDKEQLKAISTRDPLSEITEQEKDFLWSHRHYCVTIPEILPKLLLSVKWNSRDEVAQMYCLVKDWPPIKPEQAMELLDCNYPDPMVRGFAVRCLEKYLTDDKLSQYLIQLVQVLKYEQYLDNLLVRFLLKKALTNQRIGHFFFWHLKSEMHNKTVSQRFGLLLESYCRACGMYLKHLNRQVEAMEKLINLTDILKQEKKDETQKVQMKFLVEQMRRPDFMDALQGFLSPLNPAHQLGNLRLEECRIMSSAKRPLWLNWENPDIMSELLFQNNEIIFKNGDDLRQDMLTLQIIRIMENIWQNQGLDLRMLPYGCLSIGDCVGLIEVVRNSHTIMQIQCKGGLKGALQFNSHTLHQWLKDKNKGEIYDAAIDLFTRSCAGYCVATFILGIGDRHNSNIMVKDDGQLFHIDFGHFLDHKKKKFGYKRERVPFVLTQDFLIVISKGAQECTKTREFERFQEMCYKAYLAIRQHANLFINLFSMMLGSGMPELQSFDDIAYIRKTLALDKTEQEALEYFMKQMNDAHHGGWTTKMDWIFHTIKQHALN

Target: PIK3CA (human) (UniProt P42336)
Assay: Assessment of PIK3CA Kinase Activity

IC50: < 1000 nM
SMILES: Cc1nc(-c2cn3c(n2)-c2ccc(-c4cnn(C(C)(C)C(N)=O)c4)cc2OCC3)n(C(C)C)n1
